Measurements reported in patent US20100184636.

Biological target: endogenous raptor

B1: PLD2^K758R (protein)
chain: MTATPESLFPTGDELDSSQLQMESDEVDTLKEGEDPADRMHPFLAIYELQSLKVHPLVFAPGVPVTAQVVGTERYTSGSKVGTCTLYSVRLTHGDFSWTTKKKYRHFQELHRDLLRHKVLMSLLPLARFAVAYSPARDAGNREMPSLPRAGPEGSTRHAASKQKYLENYLNCLLTMSFYRNYHAMTEFLEVSQLSFIPDLGRKGLEGMIRKRSGGHRVPGLTCCGRDQVCYRWSKRWLVVKDSFLLYMCLETGAISFVQLFDPGFEVQVGKRSTEARHGVRIDTSHRSLILKCSSYRQARWWAQEITELAQGPGRDFLQLHRHDSYAPPRPGTLARWFVNGAGYFAAVADAILRAQEEIFITDWWLSPEVYLKRPAHSDDWRLDIMLKRKAEEGVRVSILLFKEVELALGINSGYSKRALMLLHPNIKVMRHPDQVTLWAHHEKLLVVDQVVAFLGGLDLAYGRWDDLHYRLTDLGDSSESAASQPPTPRPDSPATPDLSHNQFFWLGKDYSNLITKDWVQLDRPFEDFIDRETTPRMPWRDVGVVVHGLPARDLARHFIQRWNFTKTTKAKYKTPIYPYLLPKSTSTANQLPFTLPGGQCTTVQVLRSVDRWSAGTLENSILNAYLHTIRESQHFLYIENQFFISCSDGRTVLNKVGDEIVDRILKAHKQGWCYRVYVLLPLLPGFEGDISTGGGNSIQAILHFTYRTLCRGEYSILHRLKAAMGTAWRDYISICGLRTHGELGGHPVSELIYIHSRVLIADDRTVIIGSANINDRSLLGKRDSELAVLIEDTETEPSLMNGAEYQAGRFALSLRKHCFGVILGANTRPDLDLRDPICDDFFQLWQDMAESNANIYEQIFRCLPSNATRSLRTLREYVAVEPLATVSPPLARSELTQVQGHLVHFPLKFLEDESLLPPLGSKEGMIPLEVWT
exogenous PA-dependent phosphorylation of S6K1 (add-back): the exogenous PA-dependent phosphorylation of S6K1 was rescued by PLD2^wt and PLD2^K758R, but not by PLD2^F265A and PLD2^E266R
